# Measurements: PubChem BioAssay (Tox21)
# Only a part is listed here, and it is no random draw. Inconclusive results are not listed. Calls of active or inactive are those of the source. Calls follow the shape of the dose curve; as a rule, active = well fitted cell-killing curve with a large enough effect in the repeat runs; inconclusive = weak or mixed curves, or effect the other way; inactive = flat fitted curve, though single readings scatter.
# Assay: Nuclear factor erythroid 2-related factor 2/antioxidant responsive element (Nrf2/ARE) small molecule agonists: qHTS cell viability counter screen in human keratinocytes (AID 1919968); also: nearly all actives have a fitted effect of over 55% in size
# Settings: KeratinoSens HaCaT ARE cells viability, CellTiter-Fluor, 24 h; series mostly up to 92.4 µM; activity change, negative = cytotoxicity: at the top concentration
# Text: U.S. Tox21 Program National Center for Advancing Translational Sciences [NCATS] Division of Preclinical Innovation [DPI] U.S. Environmental Protection Agency [EPA] National Institutes of Environmental Health Sciences [NIEHS] National Toxicology Program [NTP] U.S. Food and Drug Administration [FDA] Tox21 Assay Overview: Oxidative stress has been implicated in the pathogenesis of a variety of diseases ranging from cancer to neurodegeneration. The antioxidant response element (ARE) signaling pathway plays an important role in the amelioration of oxidative stress. The KeratinoSens (Givaudan, Switzerland) is an in vitro test method which quantifies luciferase induction as a measure of activation of Keap1-Nrf2-antioxidationt/electrophile response element (ARE) dependant pathway in HaCaT human keratinocytes stably transfected with a selectable plasmid. The KeratinoSens assay is a cell-based assay with a reporter cell line to detect potential skin sensitizers by their ability to induce the Nrf2/ARE-response. The activation of the report gene under culture conditions can be detected by ONE-Glo Luciferase Assay System (Promega, Madison, WI). This cell line has been used to screen the Tox21 10K compound library to identify agonists that induce oxidative stress. The cytotoxicity of the Tox21 compound library against the KS-ARE cell line was tested in parallel by measuring the cell viability using CellTiter- Fluor assay system (Promega, Madison, WI) in the same wells.
# Tox21 Assay Protocol Summary: HaCaT derived cell line KeratinoSens were dispensed at 1,500 cells/5uL/well in 1536-well white wall/solid bottom plates using a Multidrop Combi (ThermoFisher Scientific, Waltham, MA) dispenser. After the assay plates were incubated at 37 C/5% CO2 for 5 h, 23 nL of compounds dissolved in DMSO, positive controls or DMSO only was transferred to the assay plate by a pintool workstation (Kalypsys, San Diego, CA). The plates were incubated at 37 C/5% CO2 for 23 h, followed by addition of 1uL/well of CellTiter-Fluor reagent into the assay plates using a Flying Reagent Dispenser (Aurora Discovery, San Diego, CA) for cell viability readout that measures cytotoxicity. After 1 h incubation at 37 C/5% CO2 the fluorescence intensity was measured using a ViewLux (PerkinElmer, Shelton, CT) plate reader.
# % is scaled to controls: 0 for no effect and ±100 for the full control effect; potency is read from the fitted curve at half-maximal effect.
SMILES,"activity change, negative = cytotoxicity",Potency
COP(=S)(Cl)OC,inactive: 2.95%,–
CCCCOP(OCCCC)OCCCC,inactive: 2.45%,–
CC(C)CCCCCCCOP(OCCCCCCCC(C)C)Oc1ccccc1,inactive: 10.5%,–
O=C(Cl)OCCOC(=O)Cl,inactive: 0.614%,–
O=C(Cl)Oc1ccccc1,inactive: 3.45%,–
O=P(Cl)(Cl)c1ccccc1,inactive: -5.74%,–
O=[N+]([O-])c1ccc(S(=O)(=O)O)c([N+](=O)[O-])c1,inactive: -1.58%,–
O=P(Cl)(Oc1ccccc1)Oc1ccccc1,inactive: -2.21%,–
COC(=O)Cl,inactive: -2.8%,–
CN(N=O)C(=N)N[N+](=O)[O-],inactive: -0.504%,–
CCC(C)(OOC(C)(C)C)OOC(C)(C)C,inactive: 0.57% [at 19 µM],–
O=[As]c1ccccc1 (stereo unspecified),–,active: 969 nM
CCCCO[P+](=O)OCCCC,–,inactive
O=[P+](Oc1ccccc1)Oc1ccccc1,inactive: 3.38%,–
Cc1cc([N+](=O)[O-])c(O)c([N+](=O)[O-])c1,inactive: -18.9%,–
CC(C)OP(=S)(OC(C)C)SCCNS(=O)(=O)c1ccccc1,inactive: -0.544%,–
CCCCC(CC)CO[P+](=O)OCC(CC)CCCC (stereo unspecified),inactive: -6.81%,–
CN(C(=O)Cc1ccccc1)[C@H]1CC[C@@]2(CCCO2)C[C@@H]1N1CCCC1,inactive: 0.969% [at 42.5 µM],–
CCNC(C)Cc1ccc2c(c1)OCO2 (stereo unspecified),inactive: 1.4%,–
NC(=O)Nc1ccc([As](=O)(O)O)cc1,–,inactive
CN(C(=O)Cc1cccc2occc12)[C@H]1CC[C@@]2(CCCO2)C[C@@H]1N1CCCC1,inactive: -12.1%,–
CCOC(=O)Cl,inactive: 5.9%,–
CCOP(=S)(CC)Sc1ccccc1 (stereo unspecified),inactive: -1.08%,–
O=[p+]1oc2ccccc2c2ccccc21 (stereo unspecified),inactive: -0.539%,–
CN(C(=O)Cc1ccc(Cl)c(Cl)c1)[C@H]1CC[C@@]2(CCCO2)C[C@@H]1N1CCCC1,inactive: 1.01% [at 42.5 µM],–
ClP(Cl)c1ccccc1,inactive: 3.02%,–
